Test system: BMDC
Experiment: CCL2 release from BMDC (ELISA)
Format: cell-based, C57BL/6 mice
Conditions: pre-incubated 20 min, then 75 μM DOTAP 24 h; PD 20 μM, SB 10 μM, U 10 μM, PTx 200 ng/mL, PP2 10 μM, Wort 200 nM, GF 200 nM; FIG. 18

| SMILES | Effect on DOTAP-induced CCL2 production |
| --- | --- |
| N#CC(=C(/N)Sc1ccccc1N)/C(C#N)=C(\N)Sc1ccccc1N | almost completely abolished CCL2 production |
| C[S+]([O-])c1ccc(-c2nc(-c3ccncc3)c(-c3ccc(F)cc3)[nH]2)cc1 (centres unmarked) | synergistically increased CCL2 production |

Reference: patent US8877206B2, “Stimulation of an immune response by cationic lipids” (PDS Biotechnology Corporation, priority 2007, dated 2014)
